Measured values: paper PMC3731160 (ACS medicinal chemistry letters, 2013)

Chains of the proteins cited; added tags and fusions are not shown. Lines headed by an entry give the natural chain unless they say otherwise; changes in a name come on top.
UniProt P43116: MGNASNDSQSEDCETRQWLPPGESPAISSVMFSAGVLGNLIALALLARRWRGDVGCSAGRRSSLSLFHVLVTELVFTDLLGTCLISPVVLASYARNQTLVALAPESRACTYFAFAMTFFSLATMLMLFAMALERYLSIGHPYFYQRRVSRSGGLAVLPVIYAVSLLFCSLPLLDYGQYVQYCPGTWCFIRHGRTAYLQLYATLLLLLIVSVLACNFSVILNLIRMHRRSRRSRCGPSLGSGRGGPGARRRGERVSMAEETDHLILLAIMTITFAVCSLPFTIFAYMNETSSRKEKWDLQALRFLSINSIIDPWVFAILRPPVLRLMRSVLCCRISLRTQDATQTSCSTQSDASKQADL

How the values were obtained:
[1] = molecular target: EP2 receptor (Homo sapiens, UniProt P43116); test: PGE2-induced cAMP accumulation; type: cell-based; conditions: from EP2 Schild KB
[2] = molecular target: T1, DP1 receptor (Homo sapiens, UniProt Q13258); conditions: ratio of KB values
T1 sequence (Q13258 1-359): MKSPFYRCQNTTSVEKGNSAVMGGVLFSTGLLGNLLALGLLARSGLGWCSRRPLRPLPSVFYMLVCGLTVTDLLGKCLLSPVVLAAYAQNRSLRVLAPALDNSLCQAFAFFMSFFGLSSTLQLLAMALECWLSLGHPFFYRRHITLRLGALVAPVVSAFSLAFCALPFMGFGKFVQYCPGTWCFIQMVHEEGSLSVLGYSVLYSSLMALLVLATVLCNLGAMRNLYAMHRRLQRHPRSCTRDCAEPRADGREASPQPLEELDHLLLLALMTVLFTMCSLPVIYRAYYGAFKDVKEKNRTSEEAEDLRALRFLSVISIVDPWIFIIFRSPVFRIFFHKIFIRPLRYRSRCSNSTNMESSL

Structure (SMILES) | fold less potency on EP2 in comparison to parent TG6-129 [1] | selectivity index for EP2 against DP1 [2] [fold]
COc1ccc(NS(=O)(=O)c2ccc(NC(=S)NC(=O)/C=C/c3ccc(C)cc3)cc2)nn1 [compound 7] | ~1.5 fold | 
COc1cc(NS(=O)(=O)c2ccc(NC(=S)NC(=O)c3sc4cc(F)ccc4c3Cl)cc2)nc(OC)n1 [compound 8] | 12–15 fold | 
CCc1nnc(NS(=O)(=O)c2ccc(NC(=S)NC(=O)/C=C/c3ccc(OC)cc3)cc2)s1 [compound 3] | 4 fold | 
CCc1nnc(NS(=O)(=O)c2ccc(NC(=S)NC(=O)/C=C/c3ccc(F)cc3)cc2)s1 [TG6-129, (E)-N-((4-(N-(5-ethyl-1,3,4-thiadiazol-2-yl)sulfamoyl)phenyl)carbamothioyl)-3-(4-fluorophenyl)acrylamide] |  | 1660
